# Yeast mating assay 1: variants of the scFv Ab-14

From the AlphaSeq antibody data of Engelhart et al. 2022 (doi:10.1038/s41597-022-01779-4), copy in the FLAb collection.

Target: peptide PDVDLGDISGINAS, taken from heptad repeat 2 (HR2) of SARS-CoV-2 spike.

Ab-14 is the parent antibody, in scFv form: VH, then a (GGGGS)3 linker, then VL. The heavy chain is unchanged in all variants.
VH: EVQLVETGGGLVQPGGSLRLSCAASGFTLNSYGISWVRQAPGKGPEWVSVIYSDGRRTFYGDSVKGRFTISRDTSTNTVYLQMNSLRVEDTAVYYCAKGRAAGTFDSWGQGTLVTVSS
VL: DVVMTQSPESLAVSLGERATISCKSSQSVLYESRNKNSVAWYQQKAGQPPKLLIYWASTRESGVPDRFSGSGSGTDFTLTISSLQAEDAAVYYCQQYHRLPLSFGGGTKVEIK

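The parent was found by panning a naive human phage display library on the peptide. Variants in AAYL50 differ from the parent at up to three CDR positions; double and triple changes were sampled at random. In AlphaSeq, yeast of one mating type display the scFv and yeast of the other type display the target. After mating in shaken culture at 30 °C for 16 h, diploids were selected and their barcode pairs sequenced. The ratio of observed to expected reads was calibrated, replicate by replicate, on BCL2-family standards whose Kd was known from biolayer interferometry. Each pool was mated in three replicate cultures.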

Each variant is given by its three light chain CDRs, as the data file delimits them; those of the parent are KSSQSVLYESRNKNSVA, WASTRES, QQYHRLPLS.
Values are log10 of the apparent Kd in nM; lower means stronger binding.
"nd" marks a missing value. The strain was present, yet no cells mated with the target were sequenced in that replicate, which points to weak or no binding.
Background: pairings of library AAYL50 with three empty control strains gave a value in 18% of cases (median 4.19, 5th percentile 2.99). Values in that range, when seen in few replicates, are hard to tell from nonspecific mating. The control count says in how many pairings with the empty strains this scFv gave a signal, with their mean in brackets.

CDR-L1 | CDR-L2 | CDR-L3 | log10 Kd, replicates | control signals
KSSQSWLYESRNKNAVA | WASTRES | QTYHRLPLS | 0.82 1.17 1.14 | 2 of 9 (4.44)
KSSQSVLYESRNKNCVA | WASTRES | QQPHRLPLS | nd nd nd | 0 of 9
KSSRSVLYESRNKNSVA | WASTRCS | QQYHRLPLS | nd 4.32 nd | 1 of 9 (4.77)
CSDQSVLYESRNINSVA | WASTRES | QQYHRLPLS | 1.64 1.68 2.05 | 1 of 9 (3.66)
KSKQSVLYESRNKNSVA | WASTRGS | QQYHRLKLS | nd nd nd | 1 of 9 (2.49)
ESSQSVLYESRPKNSVA | WASTRES | QQYHRLELS | 3.17 2.81 2.63 | 2 of 9 (3.41)
KSSQSALYESRNKNSVA | WASTREM | DQYHRLPLS | 5.25 4.48 nd | 1 of 9 (4.51)
KSSQSILYESRNKNSVA | RASTRES | QQYKRLPLS | 1.48 1.25 1.55 | 2 of 9 (4.30)
KSSQSVLYESRNKNSVA | WPSTDES | QQYHRLGLS | nd 4.41 nd | 2 of 9 (3.79)
KSSQSVLYESRNKNSVA | WAYTRVS | QQYHRQPLS | nd nd nd | 0 of 9
KSSQSVLYESRNKNSLM | WASTRES | QIYHRLPLS | nd nd 3.98 | 1 of 9 (3.86)
KSSQSVLYESRNKNSVA | WASTRES | MYYHRQPLS | nd nd 3.22 | 1 of 9 (3.80)
KSSQSVLYESVNKGSVA | WASTRES | QQYHRLPGS | 3.36 2.86 2.91 | 7 of 9 (4.43)
KSSQSVLYESQNKNSLA | WASTRES | QQYHRLPLS | 0.39 0.72 0.52 | 0 of 9
KSSQIVLYESRNKNSVA | WASTRAS | QQSHRLPLS | 3.06 1.84 2.37 | 3 of 9 (3.53)
KSSQSSLYESLNKNSVA | WASTRET | QQYHRLPLS | 0.50 0.81 0.67 | 6 of 9 (5.36)
KSSQSVLYESRNKVSVA | WPSTRED | QQYHRLPLS | 5.58 nd nd | 0 of 9
KSGQSVLYWSRNKNSVA | WASTRKS | QQYHRLPLS | nd nd nd | 0 of 9
KSSQSVLYESRNKNSVA | FASTRES | QAYHGLPLS | 5.86 2.99 nd | 1 of 9 (3.44)
PSSQSVSYESRNKNSVA | WASRRES | QQYHRLPLS | nd nd nd | 0 of 9
KSSQSVLYESRNKNSVA | WASCRDS | QQYHRLPQS | nd 4.08 nd | 1 of 9 (4.00)
KSSQSVLYESRNKNSVA | WASTRES | QVVHRLPES | nd nd nd | 0 of 9
KSSQSVLYGSRNKNSVA | WASTRES | QQRHRLPLS | 1.88 1.83 1.97 | 6 of 9 (4.28)
TSSQSRLYESRNKNSAA | WASTRES | QQYHRLPLS | 4.14 nd nd | 1 of 9 (3.32)
KSSQSVLYESRNKNWVA | WASTFES | YQYHRLPLS | nd nd nd | 2 of 9 (3.74)
KSSQSVLWKSRNKGSVA | WASTRES | QQYHRLPLS | 3.55 3.10 3.49 | 9 of 9 (4.48)
KSSQLVLYESRNKVSVA | WASTRES | QQYHRLPLS | 3.41 3.24 3.49 | 2 of 9 (4.26)
KSSQSVLYESRLKNSVA | WASTVES | QQYHRLPLH | nd nd nd | 0 of 9
FSSQSVLYESRNKNSVA | WASTRES | QQDHRLPLY | nd 2.53 nd | 0 of 9
KSSQSVLYESRNKNSVA | WYSTGES | QQYHRLPLS | 5.10 nd nd | 1 of 9 (4.32)
KSSQSVLYESRVNNSVA | WAMTRES | QQYHRLPLS | nd 4.09 2.71 | 3 of 9 (3.76)
KSSQHVLYESRNKNSVA | WASTRES | QQHWRLPLS | 2.80 2.71 3.35 | 3 of 9 (4.54)
KSSQSVLYESRNKNSVA | WASTRCS | QQYHRLPVS | 2.74 2.78 2.69 | 3 of 9 (4.17)
KSSASCLYRSRNKNSVA | WASTRES | QQYHRLPLS | 1.80 1.88 2.25 | 1 of 9 (3.57)
KNSQSLLYESRNKNSVA | WASTRES | QQYHRLPVS | 0.84 0.92 0.95 | 1 of 9 (3.44)
KSSQSVLYESRNKNSVR | WAKTRES | QQYHALPLS | nd 3.55 4.53 | 4 of 9 (4.04)
KSSQDVEYESRNKNSVA | WASTRES | QQYHRLPLE | 1.01 1.12 1.17 | 2 of 9 (3.54)
KSSQSVLYESRYKNSVA | WLSTSES | QQYHRLPLS | nd 4.84 5.46 | 3 of 9 (4.07)
KSSQSVAYESRNKESVA | WASTRES | QQYHRLILS | nd nd nd | 1 of 9 (3.63)
KSSQSVLYESRNKNSVA | WHSTRES | QQTHRLPLS | nd nd nd | 1 of 9 (3.95)

3 of these entries, quoted again:

CDR-L1 | CDR-L2 | CDR-L3 | log10 Kd, replicates | control signals
KSSQSVLYESRNKNSVA | FASTRES | QAYHGLPLS | 5.86 2.99 nd | 1 of 9 (3.44)
KSSQDVEYESRNKNSVA | WASTRES | QQYHRLPLE | 1.01 1.12 1.17 | 2 of 9 (3.54)
KSSQSVLYESQNKNSLA | WASTRES | QQYHRLPLS | 0.39 0.72 0.52 | 0 of 9

Parent in this assay: reference entry 0.65, copy in this library 1.68.